Data on 21 compounds can be found in published antibiotic growth screens (doi:10.1038/s41589-023-01349-8).

The other results are listed elsewhere or left out.

The subject of this assay is A. baumannii ATCC 17978. The experiment in a line: relative growth (fraction of control); higher = less inhibition. To be noted: 50 µM.
With `COc1ccc(CCNC(=O)[C@@]2(Sc3ccc(C)cc3)CC(=O)N(C(C)C)[C@@H]2c2ccc(CO)cc2)cc1`, the relative growth came out at 1.14. Under `Cc1csc2sc(/C=N/Cc3cccs3)c(C)c12` stands 0.99; under `CC(C)CC#Cc1ccc2c(c1)O[C@H](CN(C)C(=O)c1cnccn1)[C@H](C)CN([C@H](C)CO)S2(=O)=O`, 0.996.

The compound `Cn1cnc(S(=O)(=O)N[C@@H]2CC[C@H](CC(=O)NCC3CC3)O[C@@H]2CO)c1` registered a relative growth of 0.982. As to `O=C(C[C@H]1CC[C@@H]2[C@H](COC[C@@H](O)CN2Cc2cccc(C(F)(F)F)c2)O1)NCCc1ccncc1`, the relative growth came out at 0.95. Under `OC[C@H]1O[C@H](O)[C@H](O)[C@@H](O)[C@@H]1O` stands 0.92; under `Clc1ccc2c(c1)[C@H]1C=CC[C@@H]1[C@@H](c1ccccc1)N2`, 1.05; under `CC(=O)Nc1ncc(CN2CCOCC2)s1`, 0.966. The same measure for `O=C(O)C(O)C(O)C(=O)O.OCc1cccnc1` (stereo unspecified): 0.982; for `CC(=O)O[C@]1(C(C)=O)CCC2C3C=C(Cl)C4=CC(=O)[C@@H]5C[C@@H]5[C@]4(C)C3CC[C@@]21C` (stereo partly specified): 1.09. Regarding `C[C@H]1CN([C@@H](C)CO)S(=O)(=O)c2ccc(-c3ccncc3)cc2O[C@@H]1CN(C)C(=O)c1ccc2c(c1)OCO2`, the relative growth was 1.02. Regarding `Cc1cc([C@@H](O)CCCN)ccc1F`, the relative growth came out at 1.03.

`O=S(=O)(O)NC1CCCCC1` registered a relative growth of 0.961. On to `C[C@@H]1CN(C)S(=O)(=O)CCO1`, for which the relative growth was found to be 0.952.

Regarding `COc1ccc(C(C)(C)N)cc1OC`, the relative growth was determined as 0.882. The same measure for `NCCc1nc(-c2ccccc2)cs1`: 1. `COc1ccc(COC[C@]23NC(=S)N[C@H](c4ccccc4O2)[C@H]3COC(=O)NCCCCCC(=O)NO)cc1` displayed a relative growth of 0.961. For the compound `CC(C)CCCC(C)C1CCC2C3CC[C@H]4C[C@@H](O)CC[C@]4(C)C3CC[C@]12C` (stereo partly drawn) [5alpha-CHOLESTANOL], the relative growth was 1.07. For `CC[C@@H]1OC(OC(c2c[nH]cn2)C(NC(=O)c2nc(C(CC(N)=O)NCC(N)C(N)=O)nc(N)c2C)C(=O)NC(C)C(O)C(C)C(=O)NC(C(=O)NCCc2nc(-c3nc(C(=O)NCCCCNC(=N)N)cs3)cs2)C(C)O)[C@@H](O[C@H]2O[C@H](CO)[C@@H](O)[C@H](OC(N)=O)[C@@H]2O)[C@@H](C)[C@@H]1C.O=S(=O)(O)O.O=S(=O)(O)O` (stereo partly specified) [BLEOMYCIN (bleomycin B2 shown)], the relative growth came to 0.167. Under `C[C@@H]1O[C@@H](O[C@H]2[C@H](Oc3cc(O)c4c(=O)cc(-c5ccc(O)cc5)oc4c3)O[C@H](CO)[C@@H](O)[C@@H]2O)[C@H](O)[C@H](O)[C@H]1O` stands 1.27. Under `COCC(=O)Nc1ccc2c(c1)OC[C@@H](C)N(Cc1ccccc1F)C[C@H](C)[C@H](OC)CN(C)C2=O` stands 1.23.
